The chains are these.
B1: full-length human PD-1, wild type, on HEK293 cells [human] / human PD-L2 Ig fusion protein [human] (parent)
chain 1: LFTVTVPKELYIIEHGSNVTLECNFDTGSHVNLGAITASLQKVENDTSPHRERATLLEEQLPLGKASFHIPQVQVRDEGQYQCIIIYGVAWDYKYLTLKVKASYRKINTHILKVPETDEVELTCQATGYPLAEVSWPNVSVPANTSHSRTPEGLYQVTSVLRLKPPPGRNFSCVFWNTHVRELTLASIDLQSQMEPRTHPT
chain 2: LDSPDRPWNPPTFSPALLVVTEGDNATFTCSFSNTSESFVLNWYRMSPSNQTDKLAAFPEDRSQPGQDCRFRVTQLPNGRDFHMSVVRARRNDSGTYLCGAISLAPKAQIKESLRAELRVTERRAEVPTAHPSPSPRPAGQFQTLVVGVVGGLLGSLVLLVWVLAVICSRAARGTIGARRTGQPLKEDPSAVPVFSVDYGELDFQWREKTPEPPVPCVPEQTEYATIVFPSGMGTSSPARRGSADGPRSAQPLRPEDGHCSWPL

This test covers variants of B1. Nature of the test: flow cytometry on cells. Particulars: with human PD-L2 Ig fusion protein [human], read off a plot. On the technique in general: A flow cytometer gives signals particle by particle.
Where [1] appears, read: PD-L2 Ig about 6 nM (x position estimated).
The mark [2] stands for this setting: PD-L2 Ig about 60 nM (x position estimated).

Take chain 2 LDSPDRPWNPPTFSPALLVVTEGDNATFTCSFSNTSESFVLNWYRMSPSNQTDKLAAFPEDRSQPGQDCRFRVTQLPNGRDFHMSVVRARRNDSGTYLCGAISRAPKAQIKESLRAELRVTERRAEVPTAHPSPSPRPAGQFQTLVVGVVGGLLGSLVLLVWVLAVICSRAARGTIGARRTGQPLKEDPSAVPVFSVDYGELDFQWREKTPEPPVPCVPEQTEYATIVFPSGMGTSSPARRGSADGPRSAQPLRPEDGHCSWPL [chain 2 L104R]: the response is 47 MFI under setting [1] and 87 MFI under setting [2].
For chain 2 LDSPDRPWNPPTFSPALLVVTEGDNATFTCSFSNTSESFVLNWYRMSPSNQTDKLAAFPEDRSQPGQDCRFRVTQLPNGRDFHMSVVRARRNDSGTYLCGAISAAPKAQIKESLRAELRVTERRAEVPTAHPSPSPRPAGQFQTLVVGVVGGLLGSLVLLVWVLAVICSRAARGTIGARRTGQPLKEDPSAVPVFSVDYGELDFQWREKTPEPPVPCVPEQTEYATIVFPSGMGTSSPARRGSADGPRSAQPLRPEDGHCSWPL [chain 2 L104A], the response runs as follows: under setting [1], 55 MFI; under setting [2], 130 MFI; (PD-L2 Ig about 330 nM (x position estimated)) 130 MFI.

The values are drawn from article PMC5360572.
